In the assay the target is T1, Enoyl-[acyl-carrier-protein] reductase [NADPH] FabI (Staphylococcus aureus (strain MRSA252), UniProt Q6GI75).
T1 sequence (Q6GI75 whole entry): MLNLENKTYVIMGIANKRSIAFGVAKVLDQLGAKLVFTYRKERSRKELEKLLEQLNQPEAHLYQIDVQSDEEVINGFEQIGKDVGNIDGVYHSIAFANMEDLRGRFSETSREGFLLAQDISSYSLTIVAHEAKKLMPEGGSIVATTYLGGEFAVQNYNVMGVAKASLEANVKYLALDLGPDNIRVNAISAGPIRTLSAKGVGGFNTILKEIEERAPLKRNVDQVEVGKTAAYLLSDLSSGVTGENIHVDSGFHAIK
Description: Thermal Shift Assay. The note with it: pH 7.5. As for the experimental part: ThermoFluor experiments were carried out in 96-well plates (Concord) using the CFX96 RealTime PCR Detection system and C1000 Thermal Cycler (BioRad).

One compound from BindingDB's records for doi:10.1021/bi400413c (Stony Brook University, 2013) can be followed below.

Usually Ki stands for the dissociation constant of the complex between target and ligand, obtained from inhibition or displacement. For `CCc1ccc(Oc2ccccc2)c(O)c1` [PT01], the Ki turned out to be 0.09 nM.
